Test results taken from patent US5556941A, “Glycopeptide derivatives, a process for their preparation and pharmaceutical agents containing these compounds” (Behringwerke Aktiengesellschaft, priority 1992, dated 1996).

Molecular target: T1, trypsin from bovine pancreas (Bos taurus, UniProt P00760)
T1 construct: from tissue; host or cells: bovine pancreas
T1 sequence (P00760 24-246): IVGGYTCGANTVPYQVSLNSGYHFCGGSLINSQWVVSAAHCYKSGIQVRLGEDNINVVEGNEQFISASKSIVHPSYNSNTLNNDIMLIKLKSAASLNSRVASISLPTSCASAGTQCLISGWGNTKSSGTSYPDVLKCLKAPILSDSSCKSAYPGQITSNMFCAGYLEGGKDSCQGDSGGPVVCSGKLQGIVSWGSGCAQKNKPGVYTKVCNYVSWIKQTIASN
Test: Determination of the specificity of the inhibitors: Ki of trypsin, substrate Chromozyme TRY
Assay type: biochemical
Details: 0.5 nM bovine pancreas trypsin, pH 7.8, 37° C., 10 minute preincubation
Protocol: The specificity of the inhibitors towards thrombin and trypsin was determined. The Ki of trypsin was determined in an analogous manner to the determination of the Ki of thrombin. The reaction mixture was composed as follows--buffer: 200 mM triethanolamine, 20 mM CaCl2, pH 7.8; 37° C.; enzyme: 0.5 nM trypsin from bovine pancreas; substrate: 500 μM carbobenzoxy-L-valyl-glycyl-L-arginine-4-nitranilide (Chromozyme TRY, from Boehringer Mannheim). The enzymatic reaction was started after a 10 minute preincubation by addition of the substrate. The p-nitroaniline which was liberated was measured at 405 nm.

N=C(N)c1ccc(CC(NC(=O)CNS(=O)(=O)c2ccc3ccccc3c2)C(=O)N2CCCCC2)cc1 (stereo not shown) [NAPAP, 2-N-(2-naphthalenesulfonylglycyl)-4-amidino-phenylalaninc piperidide, reference compound] showed a Ki of 499 nM.
